The entries are a selection whose mix differs from that of the whole data set. Calls of active or inactive are those of the source. Cut-off read from the data, not from the text of the source: active = inhibition above about 40%; inactive = the rest.

Sequences of proteins named here, by UniProt entry; tags and fusion partners are left off.
UniProt Q9Y4P1, whole entry: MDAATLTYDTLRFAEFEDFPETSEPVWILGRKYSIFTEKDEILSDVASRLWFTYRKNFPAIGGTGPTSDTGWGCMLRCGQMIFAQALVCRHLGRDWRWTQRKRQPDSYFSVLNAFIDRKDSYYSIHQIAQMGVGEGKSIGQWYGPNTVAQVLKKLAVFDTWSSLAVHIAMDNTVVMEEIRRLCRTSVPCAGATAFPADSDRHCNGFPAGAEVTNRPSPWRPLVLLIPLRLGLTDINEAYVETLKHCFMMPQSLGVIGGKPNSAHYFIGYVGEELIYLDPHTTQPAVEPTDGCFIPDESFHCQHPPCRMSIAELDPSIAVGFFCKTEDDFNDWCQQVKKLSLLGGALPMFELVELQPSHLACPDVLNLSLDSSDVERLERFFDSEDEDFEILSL

This assay addresses Cysteine protease ATG4B (Homo sapiens) (UniProt Q9Y4P1). Nature of the assay: blockers of ATG4B cysteine protease activity – biochemical, fluorescence, uHTS, primary screen (AID 504462). The following applies: ATG4B cleavage of LC3-PLA2, NBD-HPC fluorescence, 1 h; at 8.33 µM; stronger effect = higher value.
As a reminder, the inhibition is the relative decrease from the control value, in per cent. With `CN1CCC(Nc2ccc(F)c(Cl)c2)CC1`, the inhibition was inactive: -6.11%.

For `CCOc1ncccc1C(=O)NCC1(N2CCOCC2)CCCCC1`, the inhibition is inactive: 3.67%.

As for `CCCOc1ccc(C(=O)NCC2(N(C)C)CCCCC2)cc1`, the inhibition was inactive: 1.19%.

In the case of `O=C(O)C1(Nc2ccccc2)CCN(Cc2ccccc2)CC1`, the inhibition was inactive: -4.74%.

With `CC(C)(C)OC(=O)N1CCC(Nc2ccccc2)CC1`, the inhibition is inactive: -3.86%.

With `CCC(CO)(C(=O)OC1CN2CCC1CC2)c1ccccc1` (stereo not given), the inhibition was inactive: 2.99%.

`COc1cc(OC)cc(C(=O)NCC2(N3CCOCC3)CCCCC2)c1`: the inhibition was inactive: -5.05%.

Regarding `COc1cccc(C(=O)N(c2cc(C)cc(C)c2)C2CCN(C(=O)OC(C)(C)C)CC2)c1`, the inhibition is inactive: -8.42%.

As to `CN1CCC(Nc2ccc(Cl)cc2)CC1`, the inhibition was inactive: -2.71%.

For `COc1cc(OC)cc(C(=O)NCC2(N3CCCCC3)CCCCC2)c1`, the inhibition was inactive: -10.6%.

As for `CC(=O)N(c1ccccc1)C1CCNCC1`, the inhibition is inactive: 1.97%.

In the case of `Cc1ccc(NC2(C#N)CCN(Cc3ccccc3)CC2)cc1`, the inhibition is inactive: -1.3%.

For the molecule `Fc1ccccc1NC1CCN(Cc2ccccc2)CC1`, the inhibition was inactive: -1.77%.

Take `Cc1ccc(C(=O)NCC2(N3CCCCC3)CCCCC2)o1`: the inhibition is inactive: -2.04%.

Turning to `CCN1CCC(Nc2cccc(F)c2)CC1`, the inhibition is inactive: 2.34%.

On to `Cc1ccccc1NC1(C#N)CCN(Cc2ccccc2)CC1`, for which the inhibition is inactive: -2.4%.

Turning to `CN(C)c1ccc(C(=O)NCC2(N3CCCCC3)CCCCC2)cc1`, the inhibition was inactive: -1.85%.

As to `Cn1c(=O)[nH]cc(N(CCCl)CCCl)c1=O`, the inhibition was inactive: -8.53%.

In the case of `O=C(NCC1(N2CCCCC2)CCCCC1)c1ccco1`, the inhibition was inactive: 2.08%.

On to `CC(C)(C)OC(=O)N1CCC(N(C(=O)c2ccccc2)c2ccc(Cl)cc2)CC1`, for which the inhibition was inactive: 39.6%.

In the case of `N#Cc1ccc(C(=O)NCC2(N3CCCCC3)CCCCC2)cc1`, the inhibition is inactive: 2.19%.

Regarding `CCCN1CCC(Nc2cc(OC)cc(OC)c2)CC1`, the inhibition is inactive: -3.07%.

In the case of `Cc1cc(N(CCCl)CCCl)ccc1C=O`, the inhibition was inactive: -4.57%.

For the molecule `c1ccc(CN2CCC(Nc3ccccc3)CC2)cc1`, the inhibition is inactive: -4.92%.

On to `CN(C)C1(CNC(=O)c2cccc(C#N)c2)CCCCC1`, for which the inhibition was inactive: -1.62%.

On to `O=C(NCC1(N2CCOCC2)CCCCC1)c1cc(Br)ccc1Cl`, for which the inhibition was inactive: -4.76%.

As for `COc1cc(C(=O)NCC2(N3CCOCC3)CCCCC2)cc(OC)c1C`, the inhibition is inactive: -5.11%.

With `COc1ccc(C(=O)NCC2(N3CCOCC3)CCCCC2)cc1OC`, the inhibition was inactive: 0.89%.

For `N/C(=N\O)c1c(N)no[n+]1[O-]`, the inhibition was inactive: -2.91%.

With `CCOC(=O)N1CCC(Nc2ccc(C)cc2)CC1`, the inhibition is inactive: 5.31%.

(Values after PubChem BioAssay AID504462 (Sanford-Burnham Center for Chemical Genomics, 2011).)
